Values of other authors, collected in patent US11718654B2, “IL-2R-βγ binding compounds” (MEDIKINE, INC., priority 2019, dated 2023).

Legend:
[1] = test system: melanoma and renal carcinoma; settings: patients with melanoma and renal carcinoma; cited from earlier work
tumor = settings: in vivo; cited from earlier work

Substance	Durable responses, share of patients [1]	Neoantigen-specific T-cell responses (tumor)
IL-2: Recombinant human Interleukin-2, natural cytokine, reference IL-2R agonist	up to 10%	–
bempegaldesleukin (NKTR-214): reported to be a biased IL-2Rβγc agonist; combined with neo-antigen vaccine VB10.NEO	–	Synergistic effects on neoantigen-specific T-cell responses were observed
